{
  "source": "PubChem BioAssay AID588397",
  "about": "(National Center for Advancing Translational Sciences (NCATS), 2011)",
  "note": "Only a part is listed here, and it is no random draw. Records with an inconclusive call do not appear. Active and inactive are the calls of the source. The call rests on the fitted dose curve; in most records, active means well fitted inhibition curve with a large enough effect; inconclusive means small, poorly fitted or top-dose-only effect; inactive means no such curve, though single readings can be large or run the other way. Potency means the concentration at half of the fitted maximal effect.",
  "data": [
    {"test": "qHTS of small molecules that selectively kill Giardia lamblia: Hit Validation;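 further: viability measured as ATP content by luminescence so killing lowers signal; trophozoites exposed to compounds for 48 h anaerobically at 37 °C; nearly all actives have a fitted effect of over 65% in size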.", "settings": "Giardia lamblia trophozoite viability, dose-response", "from_the_text": "Giardia lamblia is a human pathogen afflicting impoverished nations, and the most common cause of outbreaks of diarrhea in the United States. Giardia has been classified by the CDC as a category B bioterrorism organism. The favored anti giardiasis drugs in the US are metronidazole or tinidazole, compounds that have undesirable side effects. Moreover, increasing resistance to drug regimes and recurrence are a concern. It is thus clear that alternative drug treatments are needed.\nIn a collaboration between the University of Maryland, College Park and the NIH Chemical Genomics Center, a bioluminescence Giardia viability assay based on the trophozoites' ATP content was developed. This assay is suitable for high throughput screening, and miniaturized the assay for compound screening in 1536-well plates. The goal of the project is to screen the Molecular Libraries Small Molecule Repository (MLSMR) for compounds that selectively kill Giardia trophozoites.\nNIH Chemical Genomics Center [NCGC]\nNIH Molecular Libraries Probe Centers Network [MLPCN]\nAssay Submitter (PI): Osnat Herzberg, University of Maryland, College Park, MD.\n1. Dispense 2 ul/well media\n2. Dispense 23 nl/well compounds\n3. Dispense 4 ul/well Giardia trophozoites at a concentration of 100 cells/well\n4. Incubate 48 hrs at 37 deg C anaerobically\n5. Dispense 4 ul/well ATPLite 1-Step Luminescence assay kit\n6. Incubate 15-30 min at room temperature\n7. Read luminescence signal on ViewLux plate reader", "values": [
      {"smiles": "O=[N+]([O-])c1cc([N+](=O)[O-])c(Nc2cccnc2)c([N+](=O)[O-])c1", "Potency": "active: 3260 nM"},
      {"smiles": "CC1=CC2OC3CC4OC(=O)C=CC=CC(=O)OCCC(C)C(O)C(=O)OCC2(CC1O)C4(C)C31CO1", "note": "(stereo not drawn)", "Potency": "active: 163 nM"},
      {"smiles": "O=[N+]([O-])c1cc([N+](=O)[O-])c(Nc2ccccn2)c([N+](=O)[O-])c1", "Potency": "active: 918 nM"}
    ]}
  ]
}
